Assay [1] deals with DPP1 (Homo sapiens (Human), UniProt P53634). The assay is described as follows: DPP1 activity inhibition test on U937 cells. The following applies: substrate h-Gly-phe-AFC; for Average Inhibition % @5 nM: 5 nM compound; for Average Inhibition % @50 nM: 50 nM compound; for IC50: intracellular enzyme activity. It is filed as cell-based.
The target in assay [2] is rhCathepsin C/DPP1 (Homo sapiens (Human), UniProt P53634). The assay is described as follows: Test for inhibition of DPP1 enzyme activity. The format is biochemical. The following applies: recombinant human cathepsin C/DPP1; substrate Gly-Arg-AMC.

Sequences of proteins named here, by UniProt entry; tags and fusion partners are left off. Residues count along the entry.
UniProt P53634, 25-463 limits assumed: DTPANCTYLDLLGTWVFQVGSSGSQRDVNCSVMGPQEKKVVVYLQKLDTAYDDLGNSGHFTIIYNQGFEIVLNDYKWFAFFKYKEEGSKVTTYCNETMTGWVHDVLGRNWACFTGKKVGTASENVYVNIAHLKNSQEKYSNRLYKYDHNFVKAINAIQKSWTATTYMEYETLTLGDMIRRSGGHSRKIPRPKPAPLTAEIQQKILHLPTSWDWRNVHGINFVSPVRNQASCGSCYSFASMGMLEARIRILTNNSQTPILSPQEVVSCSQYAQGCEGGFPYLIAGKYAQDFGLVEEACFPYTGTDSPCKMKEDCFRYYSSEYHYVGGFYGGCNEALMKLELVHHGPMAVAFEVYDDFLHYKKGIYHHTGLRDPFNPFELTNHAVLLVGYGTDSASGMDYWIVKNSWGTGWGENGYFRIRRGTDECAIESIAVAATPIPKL
UniProt P53634, 25-134 limits assumed: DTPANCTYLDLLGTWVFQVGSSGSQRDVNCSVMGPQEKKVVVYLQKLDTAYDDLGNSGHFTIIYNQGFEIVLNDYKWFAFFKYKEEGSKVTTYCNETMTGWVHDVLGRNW
UniProt P53634, 231-394 limits assumed: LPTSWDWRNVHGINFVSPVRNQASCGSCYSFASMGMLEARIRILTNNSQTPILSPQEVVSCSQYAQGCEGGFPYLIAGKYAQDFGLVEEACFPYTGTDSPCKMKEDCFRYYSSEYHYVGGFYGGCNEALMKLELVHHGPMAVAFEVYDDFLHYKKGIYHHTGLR
UniProt P53634, 395-463 limits assumed: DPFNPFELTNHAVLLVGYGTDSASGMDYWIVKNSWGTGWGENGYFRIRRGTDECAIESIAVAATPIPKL

Each structure is given as a SMILES string.

The term IC50 denotes the concentration needed to halve the response being measured. As for `Cn1c(=O)oc2ccc(-c3ccc(C[C@@H](C#N)NC(=O)[C@@H]4CNCC5(CC5)CO4)cc3)cc21`, in assay [1], the “Average Inhibition % @5 nM” value is “+ (“+”: 30% ≤ inhibition % < 75%)”, the “Average Inhibition % @50 nM” value was “++ (“++”: 75% ≤ inhibition % < 100%)” and the IC50 was 9 nM. The IC50 in assay [2] is 1.4 nM.

As for `N#C[C@H](Cc1ccc(-c2ccc3c(c2)C2(CCN(C4COC4)CC2)OC3)cc1F)NC(=O)[C@@H]1CNCCCO1`, in assay [1], the “Average Inhibition % @5 nM” value was “+ (“+”: 30% ≤ inhibition % < 75%)”, the “Average Inhibition % @50 nM” value was “++ (“++”: 75% ≤ inhibition % < 100%)” and the IC50 turned out to be 11 nM. In assay [2], the concentration for half-maximal inhibition (IC50) is 0.79 nM.

(Values after patent publication US20250101011A1, “PEPTIDYL NITRILE COMPOUND AND USE THEREOF” (SHANGHAI YIDIAN PHARMACEUTICAL TECHNOLOGY DEVELOPMENT CO., …, priority 2022, published 2025).)
